Laboratory results taken from patent US20240366801A1, “HYPERPO[…] AND PRODUCT” (CAMBRIDGE ENTERPRISE LIMITED, priority 2021, published 2024).

Conditions: solution exposed to UV-Vis irradiation

O=C(O)CCC(=O)C(=O)O [alpha-KG, alpha-ketoglutaric acid]
free-radical yield (conversion rate): 10-50%
